Laboratory results reported in patent US20250032525A1 (priority 2021, published 2025).

Tested on: Brcal^−/−;p53^−/− tumors
Type: in vivo, FVB mice
Conditions: DOX 5 mg/kg

COc1cccc2c1C(=O)c1c(O)c3c(c(O)c1C2=O)C[C@@](O)(C(=O)CO)C[C@@H]3O[C@H]1C[C@H](N)[C@H](O)[C@H](C)O1 [DOX, doxorubicin]
Time to relapse and resistance to therapy: ≤ 60 days
